Consider one molecule from publication PMC8624105 (Viruses, 2021).

Test [1] deals with T1, PDZ domain of general receptor for phosphoinositides 1-associated scaffold protein (GRASP) (human, UniProt Q7Z6J2 101-190).
T1 construct: also called Tamalin
In words: holdup assay. The following applies: one partner purified.

Test [2] addresses PDZ domain of SNX27 (human, UniProt Q96L92 43-136). In words: holdup assay. The following applies: one partner purified.

B1: ACE2 PBM peptide (Biotin-(PEG3)-GFQNTDDVQTSF) (peptide)
peptide: GFQNTDDVQTSF
notes: also called PBM of ACE2
A word on the Kd: it is the constant that tells how readily two partners part at equilibrium. A lower Kd goes with a tighter complex. As for B1, the results for the Kd in test [1] and in test [2] were 81 µM and 3 µM, respectively.
